Read-outs that look alike come from different tables or passages of the source. Bounds are passed on as bounds.

Chains of the proteins cited; added tags and fusions are not shown. Lines headed by an entry give the natural chain unless they say otherwise; changes in a name come on top.
UniProt Q99572: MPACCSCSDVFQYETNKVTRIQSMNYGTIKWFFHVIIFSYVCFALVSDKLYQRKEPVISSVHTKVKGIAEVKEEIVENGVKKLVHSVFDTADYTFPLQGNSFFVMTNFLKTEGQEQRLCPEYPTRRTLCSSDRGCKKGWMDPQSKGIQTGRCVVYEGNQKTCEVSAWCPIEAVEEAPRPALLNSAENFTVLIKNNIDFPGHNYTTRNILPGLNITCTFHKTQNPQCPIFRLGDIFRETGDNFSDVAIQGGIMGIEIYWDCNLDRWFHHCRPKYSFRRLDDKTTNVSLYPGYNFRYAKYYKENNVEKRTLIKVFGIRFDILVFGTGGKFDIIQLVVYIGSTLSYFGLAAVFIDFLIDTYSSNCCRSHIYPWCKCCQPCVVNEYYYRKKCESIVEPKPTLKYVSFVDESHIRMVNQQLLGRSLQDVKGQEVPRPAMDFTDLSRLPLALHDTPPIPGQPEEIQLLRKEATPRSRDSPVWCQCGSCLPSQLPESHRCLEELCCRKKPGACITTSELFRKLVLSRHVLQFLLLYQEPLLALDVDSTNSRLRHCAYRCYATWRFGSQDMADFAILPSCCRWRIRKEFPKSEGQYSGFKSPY
UniProt Q64663: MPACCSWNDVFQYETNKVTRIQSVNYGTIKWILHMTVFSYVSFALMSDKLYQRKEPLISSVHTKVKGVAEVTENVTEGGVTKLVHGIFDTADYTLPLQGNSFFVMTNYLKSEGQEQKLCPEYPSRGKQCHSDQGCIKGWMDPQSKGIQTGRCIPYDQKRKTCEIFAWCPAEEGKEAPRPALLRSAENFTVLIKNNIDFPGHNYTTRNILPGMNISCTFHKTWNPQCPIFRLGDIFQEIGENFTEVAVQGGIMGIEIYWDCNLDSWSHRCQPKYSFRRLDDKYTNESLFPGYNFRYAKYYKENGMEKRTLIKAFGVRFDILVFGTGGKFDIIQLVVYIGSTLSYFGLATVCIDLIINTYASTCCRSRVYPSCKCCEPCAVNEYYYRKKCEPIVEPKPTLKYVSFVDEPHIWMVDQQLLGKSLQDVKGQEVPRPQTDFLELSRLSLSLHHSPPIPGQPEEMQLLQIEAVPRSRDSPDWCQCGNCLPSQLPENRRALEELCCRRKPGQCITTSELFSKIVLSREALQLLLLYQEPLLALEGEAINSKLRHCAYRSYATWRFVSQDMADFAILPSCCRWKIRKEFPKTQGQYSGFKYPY

In experiment [1] the target is T1, P2X7 (Homo sapiens (Human), UniProt Q99572). Nature of the experiment: Radioligand binding, human P2X7-1321N1 cell membranes, tritiated A-804598. How it is done:
P2X7 Antagonism in Recombinant hP2X7 Cells: (a) Ca^2+ Flux (b) Radioligand Binding
(B) Radioligand binding: human or rat P2X7-1321N1 cells were collected and frozen @−80° C. On the day of the experiment, cell membrane preparations were made according to standard published methods. The total assay volume was 100 μl:10 μl compound (10×)+(b) 40 μl tracer (2.5×)+50 μl membrane (2×). The tracer used for the assay was tritiated A-804598. The compound can be prepared as described in the literature. […] The assay was terminated by filtration (GF/B filters pre-soaked with 0.3% PEI) and washed with washing buffer (Tris-HCl 50 mM). The IC50 generated in the binding assay was corrected for tracer concentration and affinity of the tracer to derive at the affinity (Ki) of the test compounds.

Experiment [2] concerns the target T1, P2X7. The experiment in a line: Ca2+ flux (FLIPR) in 1321N1 cells expressing recombinant human P2X7 channel. It is filed as cell-based.
A further experiment has as its target rat P2X7 (Rattus norvegicus (Rat), UniProt Q64663). Nature of the experiment: Ca2+ flux (FLIPR) in 1321N1 cells expressing recombinant rat P2X7 channel. The class given is cell-based.
[3] abbreviates: human P2X7-1321N1 membranes, tracer tritiated A-804598, 1 hour 4° C., read-out: P2X7 human Ki.
Setting [4] is: 1321N1 cells, human P2X7, 250 μM BzATP, read-out: FLIPR (human) IC50.
Where [5] appears, read: 1321N1 cells, rat P2X7, 250 μM BzATP, read-out: FLIPR (rat) IC50.

Consider `O=C(c1cccc(C(F)(F)F)c1Cl)N1[C@H]2CCC[C@@H]1c1nnc(-c3ccc(F)cc3)n1C2` (single isomer, unassigned) [Example 5, (6S*,10R*)-11-{[2-Chloro-3-(trifluoromethyl)phenyl]carbonyl}-3-(4-fluorophenyl)-5,6,7,8,9,10-hexahydro-6,10-epimino[1,2,4]triazolo[4,3-a]azocine], for which the Ki at P2X7 [1] was 12.6 nM. In addition, the half-inhibitory concentration (IC50) was determined as 63.4 nM at P2X7 [2] and 14.7 nM at rat P2X7.

Take `O=C(c1ccc(F)c(C(F)(F)F)c1Cl)N1[C@H]2CC[C@@H]1c1nnc(-c3ccccn3)n1C2` [Example 43, (6S,9R)-10-{[2-Chloro-4-fluoro-3-(trifluoromethyl)phenyl]carbonyl}-3-pyridin-2-yl-6,7,8,9-tetrahydro-5H-6,9-epimino[1,2,4]triazolo[4,3-a]azepine]: on P2X7 [1] (setting [3]), the Ki stood at 12.9 nM. In addition, the IC50 on P2X7 [2] (setting [4]) was determined as 20 nM.

As for `O=C(c1cccc(C(F)(F)F)c1Cl)N1[C@H]2CCC[C@@H]1c1nnc(-c3cccnc3)n1C2` (single isomer, unassigned) [Example 14, (6S*,10R*)-11-{[2-Chloro-3-(trifluoromethyl)phenyl]carbonyl}-3-pyridin-3-yl-5,6,7,8,9,10-hexahydro-6,10-epimino[1,2,4]triazolo[4,3-a]azocine], on P2X7 [1], the Ki was found to be 17.4 nM. Also, the IC50 worked out at 10 nM at P2X7 [2] and 8.2 nM on rat P2X7.

In the case of `Cc1cccc(-c2nnc3n2C[C@H]2CCC[C@@H]3N2C(=O)c2cccc(C(F)(F)F)c2Cl)n1` (single isomer, unassigned) [Example 24, (6R*,10S*)-11-{[2-Chloro-3-(trifluoromethyl)phenyl]carbonyl}-3-(6-methylpyridin-2-yl)-5,6,7,8,9,10-hexahydro-6,10-epimino[1,2,4]triazolo[4,3-a]azocine], the IC50 at P2X7 [2] was 3700 nM; at rat P2X7, greater than 10000 nM.

Take `Cc1c(C(=O)N2[C@H]3CC[C@@H]2c2nnc(-c4ccccn4)n2C3)cccc1C(F)(F)F` [Example 44, (6S,9R)-10-{[2-Methyl-3-(trifluoromethyl)phenyl]carbonyl}-3-pyridin-2-yl-6,7,8,9-tetrahydro-5H-6,9-epimino[1,2,4]triazolo[4,3-a]azepine]: the IC50 on P2X7 [2] (setting [4]) was 7.7 nM; on rat P2X7 (setting [5]) it was 8490 nM.

The compound `Cc1ccc(-c2nnc3n2C[C@H]2CCC[C@@H]3N2C(=O)c2ccnc(C(F)(F)F)c2Cl)s1` (single isomer, unassigned) [Example 39, (6R*,10S*)-11-{[3-Chloro-2-(trifluoromethyl)pyridin-4-yl]-carbonyl}-3-(5-methylthiophen-2-yl)-5,6,7,8,9,10-hexahydro-6,10-epimino[1,2,4]triazolo[4,3-a]azocine] registered a Ki on P2X7 [1] of 25.1 nM. Further, the IC50 at P2X7 [2] was 51.1 nM; at rat P2X7, 79.8 nM.

`O=C(c1ccc(Cl)cc1Cl)N1[C@@H]2CCC[C@H]1c1nnc(-c3ncc(F)cn3)n1C2` (single isomer, unassigned) [Example 21, (6R*,10S*)-11-[(2,4-Dichlorophenyl)carbonyl]-3-(5-fluoropyrimidin-2-yl)-5,6,7,8,9,10-hexahydro-6,10-epimino[1,2,4]triazolo[4,3-a]azocine] had a Ki at P2X7 [1] of 50.1 nM. Moreover, the IC50 on P2X7 [2] is 94.8 nM; at rat P2X7, 3350 nM.

As for `O=C(c1cccc(C(F)(F)F)c1Cl)N1[C@@H]2CCC[C@H]1c1nnc(-c3ccc(F)cc3)n1C2` (single isomer, unassigned) [Example 6, (6R*,10S*)-11-{[2-Chloro-3-(trifluoromethyl)phenyl]carbonyl}-3-(4-fluorophenyl)-5,6,7,8,9,10-hexahydro-6,10-epimino[1,2,4]triazolo[4,3-a]azocine], the IC50 at P2X7 [2] was 2300 nM; on rat P2X7, 2320 nM.

With `COc1ccnc(-c2nnc3n2C[C@H]2CCC[C@@H]3N2C(=O)c2cccc(C(F)(F)F)c2Cl)c1` (single isomer, unassigned) [Example 27, (6R*,10S*)-11-{[2-Chloro-3-(trifluoromethyl)phenyl]carbonyl}-3-(4-methoxypyridin-2-yl)-5,6,7,8,9,10-hexahydro-6,10-epimino[1,2,4]triazolo[4,3-a]azocine], the IC50 on P2X7 [2] turned out to be 1910 nM; on rat P2X7, 1540 nM.

For `O=C(c1cccc(C(F)(F)F)c1Cl)N1[C@@H]2CCC[C@H]1c1nnc(-c3ncccn3)n1C2` (single isomer, unassigned) [Example 3, (6R*,10S*)-11-{[2-Chloro-3-(trifluoromethyl)phenyl]carbonyl}-3-pyrimidin-2-yl-5,6,7,8,9,10-hexahydro-6,10-epimino[1,2,4]triazolo[4,3-a]azocine], the IC50 at rat P2X7 worked out at 8.1 nM.

`Cc1nc(-c2nnc3n2C[C@@H]2CC[C@H]3N2C(=O)c2cccc(C(F)(F)F)c2Cl)cs1` [Example 56, (6S,9R)-10-{[2-Chloro-3-(trifluoromethyl)phenyl]carbonyl}-3-(2-methyl-1,3-thiazol-4-yl)-6,7,8,9-tetrahydro-5H-6,9-epimino[1,2,4]triazolo[4,3-a]azepine]: the Ki at P2X7 [1] (setting [3]) worked out at 39.8 nM.

As for `O=C(c1cccc(C(F)(F)F)c1Cl)N1[C@H]2CCC[C@@H]1c1nnc(-c3ncccn3)n1C2` (single isomer, unassigned) [Example 2, (6S*,10R*)-11-{[2-Chloro-3-(trifluoromethyl)phenyl]carbonyl}-3-pyrimidin-2-yl-5,6,7,8,9,10-hexahydro-6,10-epimino[1,2,4]triazolo[4,3-a]azocine], the IC50 on rat P2X7 was greater than 10000 nM.

For `O=C(c1cccc(C(F)(F)F)c1Cl)N1C2CCCC1c1nnc(-c3cscn3)n1C2` (stereo not drawn) [Example 7, 11-{[2-Chloro-3-(trifluoromethyl)phenyl]carbonyl}-3-(1,3-thiazol-4-yl)-5,6,7,8,9,10-hexahydro-6,10-epimino[1,2,4]triazolo[4,3-a]azocine], the Ki at P2X7 [1] (setting [3]) came to 12.6 nM. The IC50 on P2X7 [2] (setting [4]) is 7.7 nM; on rat P2X7 (setting [5]) it was 15.7 nM.

With `O=C(c1cccc(C(F)(F)F)c1Cl)N1C2CCCC1c1nnc(-c3ncccn3)n1C2` (stereo not drawn) [Example 1, 11-{[2-Chloro-3-(trifluoromethyl)phenyl]carbonyl}-3-pyrimidin-2-yl-5,6,7,8,9,10-hexahydro-6,10-epimino[1,2,4]triazolo[4,3-a]azocine], the IC50 on rat P2X7 (setting [5]) was 4.5 nM.

Turning to `O=C(c1ccnc(C(F)(F)F)c1Cl)N1[C@@H]2CCC[C@H]1c1nnc(-c3cccs3)n1C2` (single isomer, unassigned) [Example 36, (6R*,10S*)-11-{[3-Chloro-2-(trifluoromethyl)pyridin-4-yl]carbonyl}-3-thiophen-2-yl-5,6,7,8,9,10-hexahydro-6,10-epimino[1,2,4]triazolo[4,3-a]azocine], the results for the IC50 at P2X7 [2] and at rat P2X7 were 36.5 nM and 338 nM, respectively.

`O=C(c1cccc(C(F)(F)F)c1Cl)N1[C@H]2CCC[C@@H]1c1nnc(-c3ccc(F)cn3)n1C2` (single isomer, unassigned) [Example 11, (6S*,10R*)-11-{[2-Chloro-3-(trifluoromethyl)phenyl]carbonyl}-3-(5-fluoropyridin-2-yl)-5,6,7,8,9,10-hexahydro-6,10-epimino[1,2,4]triazolo[4,3-a]azocine]: the IC50 was found to be 5690 nM on P2X7 [2] and 14800 nM on rat P2X7.

As for `O=C(c1cccc(C(F)(F)F)c1Cl)N1[C@@H]2CCC[C@H]1c1nnc(-c3ccc(Cl)cn3)n1C2` (single isomer, unassigned) [Example 30, (6R*,10S*)-3-(5-Chloropyridin-2-yl)-11-{[2-chloro-3-(trifluoromethyl)phenyl]carbonyl}-5,6,7,8,9,10-hexahydro-6,10-epimino[1,2,4]triazolo[4,3-a]azocine], the Ki on P2X7 [1] was 35.5 nM. For the same compound, the IC50 at P2X7 [2] is 118 nM; at rat P2X7 it was 2770 nM.

As to `O=C(c1cccc(C(F)(F)F)c1Cl)N1C2CCCC1c1nnc(-c3ccc(F)cc3)n1C2` (stereo not drawn) [Example 4, 11-{[2-Chloro-3-(trifluoromethyl)phenyl]carbonyl}-3-(4-fluorophenyl)-5,6,7,8,9,10-hexahydro-6,10-epimino[1,2,4]triazolo[4,3-a]azocine], the Ki on P2X7 [1] (setting [3]) is 20 nM. Further, the IC50 at P2X7 [2] (setting [4]) stood at 95.3 nM; on rat P2X7 (setting [5]) it was 133 nM.

In the case of `O=C(c1cccc(C(F)(F)F)c1Cl)N1[C@@H]2CCC[C@H]1c1nnc(-c3cscn3)n1C2` (single isomer, unassigned) [Example 9, (6R*,10S*)-11-{[2-Chloro-3-(trifluoromethyl)phenyl]carbonyl}-3-(1,3-thiazol-4-yl)-5,6,7,8,9,10-hexahydro-6,10-epimino[1,2,4]triazolo[4,3-a]azocine], on P2X7 [1], affinity was put at a Ki of 398 nM. For the same compound, the IC50 on P2X7 [2] came to 482 nM; at rat P2X7, 180 nM.

On to `O=C(c1cccc(C(F)(F)F)c1Cl)N1[C@@H]2CCC[C@H]1c1nnc(-c3ncc(F)cn3)n1C2` (single isomer, unassigned) [Example 18, (6R*,10S*)-11-{[2-Chloro-3-(trifluoromethyl)phenyl]carbonyl}-3-(5-fluoropyrimidin-2-yl)-5,6,7,8,9,10-hexahydro-6,10-epimino[1,2,4]triazolo[4,3-a]azocine], for which, on P2X7 [1], the Ki is 13.8 nM. The IC50 is 1.1 nM on P2X7 [2] and 4.4 nM on rat P2X7.

The values above are taken from patent publication US9102686B2, “5,6,7,8,9,10-hexahydro-6,10-epimino[1,2,4]triazolo[4,3-a]azocines as P2X7 modulators” (Janssen Pharmaceutica NV, priority 2013, dated 2015).
